Amino acid sequences for entries named in this document (tags omitted).
UniProt Q15910, whole entry: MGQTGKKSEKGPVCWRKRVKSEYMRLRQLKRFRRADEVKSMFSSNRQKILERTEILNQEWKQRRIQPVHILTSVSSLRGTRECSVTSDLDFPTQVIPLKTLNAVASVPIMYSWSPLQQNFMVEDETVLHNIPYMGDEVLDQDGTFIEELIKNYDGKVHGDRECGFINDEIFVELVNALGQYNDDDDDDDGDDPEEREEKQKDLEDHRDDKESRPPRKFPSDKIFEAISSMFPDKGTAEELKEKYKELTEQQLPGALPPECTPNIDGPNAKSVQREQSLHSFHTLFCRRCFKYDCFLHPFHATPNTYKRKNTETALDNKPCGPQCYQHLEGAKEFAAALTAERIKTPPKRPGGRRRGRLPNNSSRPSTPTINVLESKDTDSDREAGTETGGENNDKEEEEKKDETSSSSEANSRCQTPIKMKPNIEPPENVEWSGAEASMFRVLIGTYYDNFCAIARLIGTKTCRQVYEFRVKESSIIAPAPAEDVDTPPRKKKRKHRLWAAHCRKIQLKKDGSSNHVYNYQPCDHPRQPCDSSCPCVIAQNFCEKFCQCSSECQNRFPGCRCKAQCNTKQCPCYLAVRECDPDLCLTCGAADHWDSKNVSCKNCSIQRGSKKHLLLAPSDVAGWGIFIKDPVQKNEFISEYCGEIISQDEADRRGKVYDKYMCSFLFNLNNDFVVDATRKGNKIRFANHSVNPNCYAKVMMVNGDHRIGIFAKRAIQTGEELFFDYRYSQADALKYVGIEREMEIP

In patent US9073924B2 (dated 2015):

Target: EZH2 within the PRC2 complex (Homo sapiens, UniProt Q15910)
Experiment: EZH2 methyltransferase scintillation proximity assay (SPA), PRC2 complex
Format: biochemical
Settings: inhibition of methyltransferase activity, 3H-SAM, HeLa mononucleosome substrate, foregoing or an analogous assay

## N-[(4,6-Dimethyl-2-oxo-1,2-dihydro-3-pyridinyl)methyl]-1-(1-methylethyl)-6-[6-(4-methyl-1-piperazinyl)-3-pyridinyl]-1H-pyrazolo[3,4-b]pyridine-4-carboxamide [Ex 82]
  IC50: 0.108 µM
